# According to PMC3745430, “Novel Multiplexed Assay for Identifying SH2 Domain Antagonists of STAT Family Proteins” (PLoS ONE, 2013):
# Protein sequences, listed by entry. Tags and fused reporters are not part of them. Residues count along the entry.
# UniProt P51692, 136-703 limits assumed: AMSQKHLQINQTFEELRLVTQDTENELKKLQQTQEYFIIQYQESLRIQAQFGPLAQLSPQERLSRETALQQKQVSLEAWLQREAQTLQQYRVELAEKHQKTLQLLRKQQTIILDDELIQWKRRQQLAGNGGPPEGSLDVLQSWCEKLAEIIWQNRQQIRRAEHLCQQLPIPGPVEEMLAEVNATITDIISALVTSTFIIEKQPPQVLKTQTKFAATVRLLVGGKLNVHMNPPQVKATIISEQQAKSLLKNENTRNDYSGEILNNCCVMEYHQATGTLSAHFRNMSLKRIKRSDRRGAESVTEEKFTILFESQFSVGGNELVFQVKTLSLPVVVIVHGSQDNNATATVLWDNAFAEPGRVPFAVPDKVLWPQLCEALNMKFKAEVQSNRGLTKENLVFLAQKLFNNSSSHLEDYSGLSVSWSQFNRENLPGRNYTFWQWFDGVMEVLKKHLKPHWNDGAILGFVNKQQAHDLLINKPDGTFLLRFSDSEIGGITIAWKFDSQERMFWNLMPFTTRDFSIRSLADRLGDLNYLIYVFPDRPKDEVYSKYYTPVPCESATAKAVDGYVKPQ
# UniProt P40763, 136-705 limits assumed: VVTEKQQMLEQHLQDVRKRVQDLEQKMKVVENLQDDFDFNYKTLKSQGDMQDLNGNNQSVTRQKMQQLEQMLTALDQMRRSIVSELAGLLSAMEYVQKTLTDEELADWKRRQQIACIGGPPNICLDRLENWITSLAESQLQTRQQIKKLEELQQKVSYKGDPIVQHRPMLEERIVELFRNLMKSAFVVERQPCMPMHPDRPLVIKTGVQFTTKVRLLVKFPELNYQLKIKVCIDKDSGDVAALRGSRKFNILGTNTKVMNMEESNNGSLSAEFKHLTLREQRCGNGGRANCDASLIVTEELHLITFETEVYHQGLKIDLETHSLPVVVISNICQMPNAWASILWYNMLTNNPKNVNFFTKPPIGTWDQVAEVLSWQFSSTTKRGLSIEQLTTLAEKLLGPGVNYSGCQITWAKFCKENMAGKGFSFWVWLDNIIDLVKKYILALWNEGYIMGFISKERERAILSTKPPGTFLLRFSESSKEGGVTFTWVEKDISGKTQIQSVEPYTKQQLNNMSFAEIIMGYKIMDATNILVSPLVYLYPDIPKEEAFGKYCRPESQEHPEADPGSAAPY
# Legend:
# STAT5b(136–703) = STAT5b(136–703) (Homo sapiens, UniProt P51692); test: Multiplexed Alpha assay, STAT5b-SH2 binding (AlphaScreen); details: read-out: IC50 STAT5b-SH2 binding (STAT5b), mean and SEM, three independent experiments
# STAT3(136–705) = STAT3(136–705) (Homo sapiens, UniProt P40763); test: Multiplexed Alpha assay, STAT3-SH2 binding (AlphaLISA); details: read-out: IC50 STAT3-SH2 binding (STAT3), mean and SEM, three independent experiments
smiles,measurement,setting,value
O=C1C(Cl)=C(NCCNCCO)C(=O)c2ccccc21,pIC50,STAT5b(136–703),4.70
same,pIC50,STAT3(136–705),4.92

# pIC50: −log10 of the molar value.
